{
  "source": "patent US20150011541A1",
  "about": "“PIPECOLATE-SULFONAMIDES FOR TREATMENT OF PSYCHIATRIC DISORDERS” (Max-Planck-Gesellschaft zur Förderung der Wissenschaften …, priority 2011, published 2015)",
  "key": {"[1]": {"molecular_target": "T1, human FKBP52FK1 (Homo sapiens, UniProt Q02790)", "T1 sequence (Q02790 50-138 limits assumed)": "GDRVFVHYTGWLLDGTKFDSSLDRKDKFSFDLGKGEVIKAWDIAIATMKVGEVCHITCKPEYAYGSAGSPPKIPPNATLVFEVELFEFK", "assay": "Fluorescence polarization assay, binding to FK1 domain of FKBP52", "details": "read-out: FKBP52 FK1 % inhibition, at a concentration of 5 μM; library testing"}, "[2]": {"molecular_target": "T2, human FKBP51FK1 (Homo sapiens, UniProt Q13451)", "T2 sequence (Q13451 42-130 limits assumed)": "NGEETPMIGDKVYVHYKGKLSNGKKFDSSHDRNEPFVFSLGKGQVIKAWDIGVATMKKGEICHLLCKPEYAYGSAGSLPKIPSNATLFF", "assay": "Fluorescence polarization assay, binding to FK1 domain of FKBP51", "details": "read-out: FKBP 51 FK1 % inhibition, at a concentration of 5 μM; library testing"}},
  "data": [
    {"smiles": "COc1ccc(CC[C@@H](OC(=O)[C@@H]2CCCCN2S(=O)(=O)c2ccoc2)c2cccc(OCC(=O)O)c2)cc1OC", "note": "[Compound 4, 2-(3-((R)-3-(3,4-dimethoxyphenyl)-1-((S)-1-(furan-3-ylsulfonyl)piperidine-2-carbonyloxy)propyl)phenoxy)acetic acid]", "values": [
      {"measurement": "inhibition at 5 µM", "setting": "[1]", "result": 16.2, "unit": "%"},
      {"measurement": "inhibition at 5 µM", "setting": "[2]", "result": 15.2, "unit": "%"}
    ]}
  ]
}
